Consider one substance from publication PMC4187030 (2014).

Data set [1] can be described thus: Formation constants (Kf) by UV–visible spectral displacement method, α-CD. It counts as physicochemical. To be noted: UV–visible spectral displacement with MO (MO itself by direct titration), SD <10%.
Data set [2] is described as follows: Formation constants (Kf) by UV–visible spectral displacement method, β-CD. The data set is classed as physicochemical. As to conditions: UV–visible spectral displacement with MO (MO itself by direct titration), SD <10%.
Data set [3] is described as follows: Formation constants (Kf) by UV–visible spectral displacement method, HP-β-CD. It counts as physicochemical. To be noted: UV–visible spectral displacement with MO (MO itself by direct titration), SD <10%.
The conditions of data set [4]: α-CD; cited from earlier work.
For data set [5] the following is noted: β-CD, cited from earlier work.
For data set [6] the following is noted: HP-β-CD, cited from earlier work.
For data set [7] the following is noted: RAMEB, cited from earlier work.
For data set [8] the following is noted: CRYSMEB, cited from earlier work.
The conditions of data set [9]: cited from earlier work.

Read-outs that look alike come from different tables or passages of the source.

As to isoeugenol [Isoeugenol (3)], the “Formation constant (Kf)” value was 178 M⁻¹ in [1]; 364 M⁻¹ in data set [2]; 418 M⁻¹ in [3]; 85 M⁻¹ in data set [4]; 304 M⁻¹ in data set [5] (ref 21); 255 M⁻¹ in data set [5] (ref 24). Moreover, the “Formation constant (Kf)” value in [6] (ref 21) is 452 M⁻¹; in data set [6] (ref 24), 441 M⁻¹; in data set [7] (ref 21), 547 M⁻¹; in [7] (ref 24) it was 514 M⁻¹; in [8] (ref 21), 240 M⁻¹; in data set [8] (ref 24), 263 M⁻¹. In addition, the “log P” value in data set [9] is recorded as 2.379.

What is called log P is a log measure of how a compound divides between an organic and an aqueous phase.
